Earlier results on two molecules are cited in patent US20060095982A1 (priority 2002, published 2006).

The structures appear in SMILES notation. This is a selection: effects in other tests are not listed, and their absence says nothing.

The subject of series [1] is wild-type seeds. The following applies: 1 mM GTN or 0.05 mM trinitrotoluene; cited from earlier work.
In series [2] the test system is Seeds from transgenic tobacco plants expressing pentaerythritol tetranitrate reductase. Particulars: 1 mM GTN or 0.05 mM trinitrotoluene; cited from earlier work.

For the molecule `O=[N+]([O-])OCC(CO[N+](=O)[O-])O[N+](=O)[O-]`, the “germination and growth of wild-type seeds” value in series [1] is “inhibited germination and growth”. Moreover, the “germination and growth of transgenic seeds” value in series [2] was “able to germinate and grow”.

In the case of `Cc1c([N+](=O)[O-])cc([N+](=O)[O-])cc1[N+](=O)[O-]`, in series [1], the “germination and growth of wild-type seeds” value was “inhibited germination and growth”. For the same molecule, the “germination and growth of transgenic seeds” value in series [2] was “able to germinate and grow”.
